Measured values from patent US20090131702A1, “METHOD FOR THE PRODUCTION OF METAL CARBOXYLATES AND THE METAL AMINOATE OR METAL HYDROXY ANALOGUE METHIONATE DERIVATIVES THEREOF, AND USE OF SAME AS GROWTH PROMOTERS IN ANIMAL FEED” (NOREL, S.A., priority 2003, published 2009).

Experiments:
[1] = Test in broilers: production parameters, copper methioninate / formate / complex (Example 13); assay type: in vivo, broilers of the Ross strain; conditions: 25 ppm of copper added to base diet
Method: Four experimental treatments were used, comprising the same basic diet supplemented with different sources of copper:
The dose of copper was calculated taking into account the copper content of the ingredients and the copper requirements in the case of treatments T-0 to T-3.
(§1) Control of production parameters was effected at 21 and 42 days of age, recording the live weight and the consumption of feed per batch.

[2] = Test of efficacy in piglets: production parameters, copper glycinate / formate / complex (Example 15); assay type: in vivo; conditions: 21-42 days, 125 ppm of copper added to base diet
[3] = broilers
[4] = Test in broilers: production parameters, zinc methioninate / formate / complex (Example 12); assay type: in vivo, broilers of the Ross strain; conditions: 50 ppm of zinc added to base diet
From the text: Four experimental treatments were used, comprising the same basic diet supplemented with different sources of zinc:
as §1

Compound	IC (index of conversion) ([1]; 0-21 days)	IC (index of conversion) ([1]; 0-42 days)	IC (index of conversion) ([1]; 21-42 days)	IC (index of conversion) [2]	IC (index of conversion) ([3]; 0-21 days, 20 ppm of copper added to base diet)	IC (index of conversion) ([3]; 0-21 days, 150 ppm of copper added to base diet)	IC (index of conversion) ([3]; 0-42 days, 20 ppm of copper added to base diet)	IC (index of conversion) ([3]; 0-42 days, 150 ppm of copper added to base diet)	IC (index of conversion) ([3]; 21-42 days, 20 ppm of copper added to base diet)	IC (index of conversion) ([3]; 21-42 days, 150 ppm of copper added to base diet)	IC (index of conversion) ([4]; 0-21 days)	IC (index of conversion) ([4]; 0-42 days)	IC (index of conversion) ([4]; 21-42 days)
O=S(=O)([O-])[O-].[Cu+2] [copper sulfate]	1.43 a	1.99 a	2.23 a	2.10 a	1.43 a	1.38 b	1.94 a	1.80 b	2.16 a	2.01 b			
O=S(=O)([O-])[O-].[Zn+2] [zinc sulfate]											1.40 a	1.90 a	2.12 a

Read-outs that look alike come from different tables or passages of the source.
